The values below are quoted from earlier work in patent US20250262305A1 (Aegis Therapeutics, LLC, priority 2018, published 2025).

SMILES strings stand for the structures.

For this series the following is noted: Mean ± SD, cited from earlier work.

As for `CNC[C@H](O)c1ccc(O)c(O)c1` [Epinephrine, (R)-4-(1-Hydroxy-2-(methylamino)ethyl)benzene-1,2-diol], where the note is “Intramuscular (IM) 0.3 mg”, the AUC0-120 min was 18.3 ± 9.3 ng·min/mL. Besides, the Cmax – broadly, the highest concentration seen after dosing – (Intranasal (IN) 5 mg) was 0.386 ± 0.152 ng/mL.
